One block for each substance: values may come before it.
Experiments:
[1] = biological target: TSHR IV (K244A, E247A, K250A, R255A) (human) (UniProt P16473)
[2] = biological target: TSHR V (K244A, E247A, K250A, E251A, R255A) (human) (UniProt P16473)
[3] = biological target: wild-type human TSH receptor (hTSHR) (human) (UniProt P16473)
[4] = biological target: wild-type human TSH receptor (hTSHR) (human) (UniProt P16473); test: radioligand binding; CHO cell monolayers stably expressing TSHR in 24-well plates; ~30,000 cpm 125I-TSH with increasing unlabeled bTSH, 4 h at room temperature, Hanks' buffer with 250 mM sucrose in place of NaCl, 0.25% BSA; Kd by Scatchard analysis, excluding the low affinity non-specific site; four experiments
[5] = biological target: TSHR IV (K244A, E247A, K250A, R255A) (human) (UniProt P16473); test: as above
[6] = biological target: TSHR V (K244A, E247A, K250A, E251A, R255A) (human) (UniProt P16473); test: as above

TSH EC50 for intracellular cAMP generation, CHO cells stably expressing the TSHR, 1 h (the paper reads the shift as partial uncoupling of binding and signalling, not lower affinity) [1]: 0.67 mU/ml | TSH EC50 for intracellular cAMP generation, CHO cells stably expressing the TSHR, 1 h (the paper reads the shift as partial uncoupling of binding and signalling, not lower affinity) [2]: 3.2 mU/ml | TSH EC50 for intracellular cAMP generation, CHO cells stably expressing the TSHR, 1 h [3]: 0.24 mU/ml
Substance: bovine (b) TSH (from UniProt P01217 25-120; P01223 21-132) (ligand)

125I-TSH bound (% of total cpm) (% of total cpm) [4]: 29.1
Substance: 125I-TSH (from UniProt P01217 25-120; P01223 21-132) (ligand; other documents disagree on this pair)

125I-TSH bound (% of total cpm) (% of total cpm) [5]: 16.4 | 125I-TSH bound (% of total cpm) (% of total cpm) [6]: 11
Substance: 125I-TSH (from UniProt P01217 25-120; P01223 21-132) (ligand)
